This is an account of results in patent publication US12070513B2, “PSMA-binding agents and uses thereof” (The Johns Hopkins University, priority 2008, dated 2024).

Structures are written as SMILES. Entries after “also recorded” stand apart in the source; their conditions may differ.

This data set has as its system PSMA+ LNCaP xenograft in SCID mouse. In kind it is in vivo. To be noted: 4 h p.i., LNCaP tumor. The method, then:
At 4 h p.i., the mouse was anesthetized with isoflurane and maintained under 1% isoflurane in oxygen. The mouse was positioned on the X-SPECT (Gamma Medica, Northridge, Calif.) gantry and was scanned using two low energy, high-resolution pinhole collimators (Gamma Medica) rotating through 360° in 6° increments for 45 seconds per increment. All gamma images were reconstructed using Lunagem software (Gamma Medica, Northridge, Calif.) Immediately following SPECT acquisition, the mice were then scanned by CT (X-SPECT) over a 4.6 cm field-of-view using a 600 μA, 50 kV beam. […] Data were reconstructed using the Ordered Subsets-Expectation Maximization (OS-EM) algorithm.

As to `O=C(O)CCC(NC(=O)NC(CCCCNC(=O)c1cncc([125I])c1)C(=O)O)C(=O)O` (stereo not shown) [[^125I]8, 2-(3-{1-carboxy-5-[(5-[^125I]iodo-pyridine-3-carbonyl)-amino]-pentyl}-ureido)-pentanedioic acid], the “radiopharmaceutical uptake in SPECT-CT image” value is “Tumor uptake and retention was high, with slow washout; also recorded: intense uptake within tumor”.
